Values quoted from earlier work as cited in patent US7060295B2, “Formulations for the prevention and treatment of insulin resistance and type 2 diabetes mellitus” (ChronoRX LLC, priority 2000, dated 2006).

Details: in vivo

excretion: excreted unchanged in the urine
SMILES: CN(C)C(=N)N=C(N)N [Metformin, metformin]
